Experimental data taken from patent EP4745124A1, “NAPHTHALIMIDE-BASED CORONAVIRUS PAPAIN-LIKE PROTEASE INHIBITOR” (Guangzhou National Laboratory, priority 2023, dated 2025).

Target: T1, SARS-CoV-2 PL^Pro (Severe acute respiratory syndrome coronavirus 2, UniProt P0DTD1)
T1 construct: SARS-CoV-2 PL^Pro catalytic domain (746-1060); made in house
Assay: biochemical

With Cc1ccc(N2CCN(C)CC2)cc1C(=O)NC1(c2ccc3c4c(cccc24)C(=O)N3C)CC1 [Compound P1, 2-Methyl-N-(1-(1-methyl-2-oxo-1,2-dihydrobenzo[cd]indol-6-yl)cyclopropyl)-5-(4-methylpiperazin-1-yl)benzamide] the IC50 was 40 to 100 nM.
